Data as given in BindingDB's records for doi:10.7270/Q24B305P (D3R/Abbott, 2015).

Target: Urokinase-type plasminogen activator [179-424,C299A,N323Q] (Human, UniProt P00749, C299A/N323Q)
Assay: Photometric_Method1

| Ki [nM] | Compound |
| --- | --- |
| 637 | COc1ccc2ccc(C(=N)N)cc2c1OCC(N)=O [uPa_4] |
| 628 | N=C(N)c1ccc2cc(C(=O)Nc3ccccc3)ccc2c1 [uPa_7] |
| 40 | COC(=O)Nc1cccc2ccc(C(=N)N)cc12 [uPa_10] |
| 630 | COc1ccc2ccc(C(=N)N)cc2c1-c1cnn(S(C)(=O)=O)c1 [uPa_13] |
